As a reminder, the IC50 is the concentration at which inhibition is half-maximal. Read a high IC50 as lower potency.

Chains of the proteins cited; added tags and fusions are not shown.
UniProt P33981, whole entry: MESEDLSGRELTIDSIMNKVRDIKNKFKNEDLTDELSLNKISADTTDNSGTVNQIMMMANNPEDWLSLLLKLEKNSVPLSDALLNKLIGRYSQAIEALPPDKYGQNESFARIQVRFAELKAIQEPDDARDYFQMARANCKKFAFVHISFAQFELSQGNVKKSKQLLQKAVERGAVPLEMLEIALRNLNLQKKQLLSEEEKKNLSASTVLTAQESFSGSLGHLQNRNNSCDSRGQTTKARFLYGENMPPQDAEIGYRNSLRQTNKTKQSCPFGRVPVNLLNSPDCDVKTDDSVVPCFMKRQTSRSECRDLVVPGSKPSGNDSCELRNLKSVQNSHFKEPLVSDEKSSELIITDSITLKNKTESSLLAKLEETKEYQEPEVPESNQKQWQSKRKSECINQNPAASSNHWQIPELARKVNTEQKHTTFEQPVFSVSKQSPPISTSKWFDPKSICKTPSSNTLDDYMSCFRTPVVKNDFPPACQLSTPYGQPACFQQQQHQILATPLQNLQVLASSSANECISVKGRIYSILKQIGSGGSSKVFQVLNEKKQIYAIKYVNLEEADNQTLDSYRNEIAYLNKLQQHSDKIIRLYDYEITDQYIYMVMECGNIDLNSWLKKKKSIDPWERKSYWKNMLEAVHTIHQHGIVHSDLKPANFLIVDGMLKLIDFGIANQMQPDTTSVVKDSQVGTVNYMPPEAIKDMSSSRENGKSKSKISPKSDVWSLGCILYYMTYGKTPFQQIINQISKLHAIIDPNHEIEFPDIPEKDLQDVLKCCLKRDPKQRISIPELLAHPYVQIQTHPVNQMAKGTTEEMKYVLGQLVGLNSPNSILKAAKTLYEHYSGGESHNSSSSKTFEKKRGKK

This note sets out measurements from US9371319B2, “Pyrrolopyridineamino derivatives as MPS1 inhibitors” (priority 2011, dated 2016).

This assay deals with full length MPS1 (Homo sapiens, UniProt P33981).

Take `COc1nc(-c2cnn(C)c2)ncc1Nc1cc2c(cn1)cc(-c1cnn(C)c1)n2C(=O)OC(C)C`: the IC50 was found to be 14 nM. That is a double-digit nanomolar value.
